As a reminder, the IC50 is the midpoint of a concentration-inhibition curve.

Amino acid sequences for entries named in this document (tags omitted).
UniProt Q15910, whole entry: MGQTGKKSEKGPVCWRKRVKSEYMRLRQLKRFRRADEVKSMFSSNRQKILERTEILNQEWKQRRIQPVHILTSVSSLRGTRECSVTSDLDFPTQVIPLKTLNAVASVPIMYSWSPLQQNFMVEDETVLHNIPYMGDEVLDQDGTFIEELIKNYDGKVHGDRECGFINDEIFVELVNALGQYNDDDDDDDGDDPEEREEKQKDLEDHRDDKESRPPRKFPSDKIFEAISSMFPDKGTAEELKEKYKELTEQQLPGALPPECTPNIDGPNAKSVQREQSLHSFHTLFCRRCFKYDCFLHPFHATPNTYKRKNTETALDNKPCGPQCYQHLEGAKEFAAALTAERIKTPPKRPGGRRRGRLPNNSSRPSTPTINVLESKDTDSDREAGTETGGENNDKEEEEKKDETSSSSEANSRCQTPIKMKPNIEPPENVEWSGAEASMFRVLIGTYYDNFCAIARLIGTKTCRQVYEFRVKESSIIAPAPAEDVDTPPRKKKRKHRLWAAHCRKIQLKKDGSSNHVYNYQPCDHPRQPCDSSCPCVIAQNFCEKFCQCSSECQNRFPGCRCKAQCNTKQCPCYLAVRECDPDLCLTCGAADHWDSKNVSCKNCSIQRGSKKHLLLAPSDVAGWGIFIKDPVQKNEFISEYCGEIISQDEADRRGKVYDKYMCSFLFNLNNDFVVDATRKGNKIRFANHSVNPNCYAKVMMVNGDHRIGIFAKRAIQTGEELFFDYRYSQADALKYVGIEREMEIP

The first experiment concerns the target T1, Histone-lysine N-methyltransferase EZH2 (Homo sapiens, UniProt Q15910). Briefly: Inhibition of wild type EZH2 (unknown origin) by AlphaLISA assay.
The compound `CCN(c1cc(/C=C/c2ccc(CN3C[C@@H]4C[C@H]3CO4)c(F)c2)cc(C(=O)NCc2c(C)c3c([nH]c2=O)CCCC3)c1C)C1CCOCC1` registered a 50% inhibitory concentration (IC50) of 161 nM. Same read-out and setting: the value for `CCN(c1cc(/C=C/c2ccc(CN3C[C@@H](C)O[C@@H](C)C3)cc2)cc(C(=O)NCc2c(C)c3c([nH]c2=O)CCCC3)c1C)C1CCOCC1` was above 200 nM; that for `CCN(c1cc(/C=C/c2ccc(CN3C[C@H]4C[C@@H]3CO4)c(F)c2)cc(C(=O)NCc2c(C)c3c([nH]c2=O)CCCC3)c1C)C1CCOCC1` was 329 nM; that for `CCN(c1cc(/C=C/c2cccc(CN(C)C)c2)cc(C(=O)NCc2c(C)c3c([nH]c2=O)CCCC3)c1C)C1CCOCC1` was 35 nM.

Regarding `CCN(c1cc(/C=C/c2ccc(S(=O)(=O)N3CCOCC3)cc2)cc(C(=O)NCc2c3c(c(C)[nH]c2=O)CCCC3)c1C)C1CCOCC1`, the IC50 amounted to 137 nM. On the same count and under the same terms, next, `CCN(c1cc(/C=C/c2ccc(CN3C[C@@H](C)O[C@@H](C)C3)c(F)c2)cc(C(=O)NCc2c3c(c(C)[nH]c2=O)CCCC3)c1C)C1CCOCC1`: 7.8 nM; `CCN(c1cc(/C=C/c2cccc(CN3CCOCC3)c2)cc(C(=O)NCc2c3c(c(C)[nH]c2=O)CCCC3)c1C)C1CCOCC1`: 39 nM.

Take `CCN(c1cc(/C=C/c2ccc(/C=C/C(=O)OC)cc2)cc(C(=O)NCc2c3c(c(C)[nH]c2=O)CCCC3)c1C)C1CCOCC1`: the IC50 amounted to 620 nM. `CCN(c1cc(/C=C/c2ccc(CN3C[C@@H](C)O[C@@H](C)C3)cc2)cc(C(=O)NCc2c3c(c(C)[nH]c2=O)CCCC3)c1C)C1CCOCC1`: inhibition was half-maximal at 110 nM (IC50). With `CCN(c1cc(/C=C/c2ccc(CN3C[C@@H]4C[C@H]3CO4)c(F)c2)cc(C(=O)NCc2c3c(c(C)[nH]c2=O)CCCC3)c1C)C1CCOCC1`, 56 nM corresponded to half-maximal inhibition (IC50). `CCN(c1cc(/C=C/c2ccc3c(c2)NC(=O)CO3)cc(C(=O)NCc2c3c(c(C)[nH]c2=O)CCCC3)c1C)C1CCOCC1` yielded an IC50 of 44 nM. With `CCN(c1cc(/C=C/c2cccc(CN(C)C)c2)cc(C(=O)NCc2c3c(c(C)[nH]c2=O)CCCC3)c1C)C1CCOCC1`, it took 22 nM to reach half-maximal inhibition (IC50). As for `CCN(c1cc(/C=C/c2ccc(/C=C/C(=O)OC)cc2)cc(C(=O)NCc2c(C)c3c([nH]c2=O)CCCC3)c1C)C1CCOCC1`, the IC50 is above 1000 nM. Same read-out and setting: the value for `CCN(c1cc(/C=C/c2ccc(N3CCOCC3)nc2)cc(C(=O)NCc2c3c(c(C)[nH]c2=O)CCCC3)c1C)C1CCOCC1` was 23 nM.

`CCN(c1cc(/C=C/c2ccc(CN3CCOCC3)cc2)cc(C(=O)NCc2c3c(c(C)[nH]c2=O)CCCC3)c1C)C1CCOCC1` yielded an IC50 of 27 nM.

Compound `CCN(c1cc(/C=C/c2ccc(CN3CCN(C)CC3)cc2)cc(C(=O)NCc2c(C)c3c([nH]c2=O)CCCC3)c1C)C1CCOCC1` gave an IC50 of 143 nM. The compound `CCN(c1cc(/C=C/c2ccc(N3CCOCC3)nc2)cc(C(=O)NCc2c(C)c3c([nH]c2=O)CCCC3)c1C)C1CCOCC1` yielded an IC50 of 114 nM. In turn, `CCN(c1cc(/C=C/c2cccc(CN3CCOCC3)c2)cc(C(=O)NCc2c(C)c3c([nH]c2=O)CCCC3)c1C)C1CCOCC1` showed an IC50 above 200 nM.

With `CCN(c1cc(/C=C/c2ccc(S(=O)(=O)N3CCOCC3)cc2)cc(C(=O)NCc2c(C)c3c([nH]c2=O)CCCC3)c1C)C1CCOCC1`, the IC50 is 225 nM. `CCN(c1cc(/C=C/c2ccc3c(c2)NC(=O)CO3)cc(C(=O)NCc2c(C)c3c([nH]c2=O)CCCC3)c1C)C1CCOCC1` displayed an IC50 of 189 nM.

In turn, `CCN(c1cc(/C=C/c2ccc(CN3C[C@H]4C[C@@H]3CO4)c(F)c2)cc(C(=O)NCc2c3c(c(C)[nH]c2=O)CCCC3)c1C)C1CCOCC1` yielded an IC50 of 60 nM.

In turn, `CCN(c1cc(/C=C/c2ccc(CN3CCN(C)CC3)cc2)cc(C(=O)NCc2c3c(c(C)[nH]c2=O)CCCC3)c1C)C1CCOCC1` had an IC50 of 31 nM. For `CCN(c1cc(/C=C/c2ccc(CN3CCOCC3)cc2)cc(C(=O)NCc2c(C)c3c([nH]c2=O)CCCC3)c1C)C1CCOCC1`, the IC50 is above 200 nM.

In the case of `CCN(c1cc(/C=C/c2ccc(CN3C[C@@H](C)O[C@@H](C)C3)c(F)c2)cc(C(=O)NCc2c(C)c3c([nH]c2=O)CCCC3)c1C)C1CCOCC1`, the IC50 worked out at 33 nM.

The target in the next experiment is T1, Histone-lysine N-methyltransferase EZH2. Briefly: Inhibition of wild type EZH2 (unknown origin) in presence of 1 uM SAM by AlphaLISA assay. A general note: In Alpha technology, singlet oxygen from a donor bead excites a nearby acceptor bead.
In the case of `CCN(c1cc(/C=C/c2cccc(CN(C)C)c2)cc(C(=O)NCc2c3c(c(C)[nH]c2=O)CCCC3)c1C)C1CCOCC1`, the half-maximal inhibitory concentration (IC50) is 22 nM.

(Values after ChEMBL document CHEMBL4627254, “Design and synthesis of (E)-1,2-diphenylethene-based EZH2 inhibitors” (Bioorg Med Chem Lett, 2020).)
